The test system of assay [1] is A549 lung cancer cells. The note with it: literature (Kurai et al., 2007); cited from earlier work.
Assay [2] relates to A549 flank tumors. Description: Planned study of ADCC in vivo (Table 1 groups). The note with it: IV cetuximab, IT saline (Group 2) vs control group. Details: species or system NSG mice. The method, then: NSG mice with established A549 flank tumors (100-200 mm^3) can be studied. The ability of BM-derived hybrid neutrophils to mediate ADCC in vivo using the cetuximab can be characterized. Briefly, cetuximab is injected IV into tumor-bearing mice. Next, 10^7 BM-derived hybrid or canonical neutrophils are injected intratumroally (IT). All IV injections are performed 2 hours before the IT injections to allow antibody binding to tumors. Tumor size over 5 days is measured. […] Ten (10) mice per group (enough to enable detection of 25% differences in tumor size-based on years of previous similar studies and consultation with a biostatistician) are studied. Compared to a control group (Group 1), little effect of antibody alone is expected (Group 2). No effect from canonical BMN (groups 3 and 4) or the hybrid BMN without cetuximab is expected (Group 5).

As to “cetuximab: anti-EGFR monoclonal antibody”, in assay [1], the ADCC activity entry is recorded as “capable of activating ADCC activity”. For the same substance, the “expected effect on tumor size” value in assay [2] is on record as “little effect”.

Source of the values: patent US11925662B2, “Compositions and methods of enhancing anti-tumor response using hybrid neutrophils” (THE TRUSTEES OF THE UNIVERSITY OF PENNSYLVANIA, priority 2015, dated 2024).
